{
  "source": "paper PMC7716890",
  "about": "(Clinical Pharmacokinetics, 2020)",
  "key": {"[1]": {"settings": "cocktail with probenecid vs cocktail alone"}},
  "note": "“Also recorded” adds a separate entry of the source.",
  "data": [
    {"molecule": "CN(C)C(=N)N=C(N)N", "note": "[Metformin, metformin]", "values": [
      {"measurement": "effect of probenecid on systemic exposure", "setting": "[1]", "result": "no relevant effect"},
      {"measurement": "effect of rifampin on Cmax and AUC0–tz (exposure)", "setting": "cocktail with single-dose rifampin vs cocktail alone", "result": "not impacted; also recorded: unchanged"},
      {"measurement": "effect of verapamil on systemic exposure", "setting": "cocktail with single-dose verapamil vs cocktail alone", "result": "no effect"}
    ]}
  ]
}
